Laboratory results reported in patent publication US11912717B2, “Crystal form of tenvermectin B, preparation method therefor, and use thereof” (Shenzhen Tenver Biopharm Co., Ltd., priority 2018, dated 2024).

Test: Stability test (accelerated experiment, sealed PE/aluminum foil bags, 40±2° C., humidity 75±5%)

For “tenvermectin B [crystal form I of tenvermectin B]”, which “stability on storage (in words)” value (after a storage of 6 months, 40±2° C., humidity 75±5%) is on record?
Its value is “basically stable”.

What about the “stability (general statement, in words)” value (comparison of amorphous and crystal form I) of the same substance?
The value was “much better than that of amorphous tenvermectin B”.

What about the “degradation in the stability experiment” value (stability experiment) of the same substance?
The value was “no degradation”.
